Assay results published in publication PMC5747257 (Bioorganic & medicinal chemistry letters, 2017).

Key:
[1] = test system: HDAC6 (substrate acetyl-α-tubulin, AcTub); test: In cellulo selectivity, western blot of acetyl-α-tubulin in U937 cells; type: cell-based; settings: SAHA 5 µM, 1e 10–40 µM, compared to DMSO control
[2] = test system: Class I HDAC (HDAC1, 2, and 3) (substrate acetyl-histone 3, AcH3); test: In cellulo selectivity, western blot of acetyl-histone H3 in U937 cells; type: cell-based; settings: SAHA 5 µM, 1e 10–40 µM, compared to DMSO control

Which results are given for O=C(CCCCCCC(=O)Nc1ccccc1)NO [SAHA, Suberoylanilide hydroxamic acid]?
levels of acetyl-α-tubulin (AcTub) [1]: increased the levels of both acetyl-α-tubulin and acetyl-histone H3 to a similar extent; levels of acetyl-histone H3 (AcH3) [2]: increased the levels of both acetyl-α-tubulin and acetyl-histone H3 to a similar extent
